PMC4556830, “The Effect of MGCD0103 on CYP450 Isoforms Activity of Rats by Cocktail Method” (BioMed Research International, 2015)

Test: Pharmacokinetics of six cocktail probe drugs in rat plasma (UPLC-MS/MS) after 7-day MGCD0103 or saline
Conditions: Sprague-Dawley, po, 10 mg/kg, t 1/2, High group: MGCD0103 80 mg/kg i.g. 7 days, then probe 10 mg/kg (tolbutamide 1 mg/kg) i.g., mean ± SD, n = 10
Protocol: The compounds were analyzed by a UPLC-MS/MS with ACQUITY I-Class UPLC and a XEVO TQD triple quadrupole mass spectrometer that was equipped with an electrospray ionization (ESI) interface (Waters Corp., Milford, MA, USA). The UPLC system included a Sample Manager with Flow-Through Needle (SM-FTN) and a Binary Solvent Manager (BSM). Data acquisition and instrument control were performed on the MassLynx 4.1 software (Waters Corp., Milford, MA, USA).
The initial mobile phase consisted of 0.1% formic acid and acetonitrile with gradient elution at a flow rate of 0.4 mL/min and an injection volume of 2 μL. […] The total run time of the analysis was 3 min.
The mass spectrometric detection was performed in a positive mode. Nitrogen was used as the cone gas (50 L/h) and desolvation gas (1000 L/h). The mass conditions were set as follows: source temperature 150°C, capillary voltage 2.5 kV, and desolvation temperature 500°C.
Forty rats (220 ± 20 g) were randomly divided into four different dosages of MGCD0103 groups (Low group, Medium group, High group, and control group with 10 rats in each group). […]
Concentration of plasma probe drugs versus time was analyzed by Version 3.0 Data Analysis System (Wenzhou Medical University, China). The main pharmacokinetic parameters of the MGCD0103 group and control group were analyzed by SPSS l8.0 statistical software.

- half-life: 1.1 ± 0.4 h
SMILES: COc1ccc2[nH]c([S+]([O-])Cc3ncc(C)c(OC)c3C)nc2c1 (stereo not shown) [Omeprazole]
